Results on one compound are retold here after US4997771A, “Method for measuring the BZ-1 receptor binding activity in a test sample or test compound” (Schering Corporation, priority 1987, dated 1991).

This assay has as its system ^3 H-flunitrazepam binding sites (benzodiazepine receptors BZ-1 and BZ-2) in rat cortex. Kind of assay: ^3 H-flunitrazepam competition binding, rat cortex. As to the method: Male Spraque-Sawley rats (200 to 250 gms) from Charles River Breeding Laboratories, Mass., were used to obtain brain tissue. Animals were decapitated and their brains removed. Synaptic membranes were obtained following the procedure disclosed in Life Sc., 35, 105 (1984). Cerebral cortex and cerebellum were dissected on ice and homogenized in 20 volumes of ice cold 0.32 M sucrose using a glass homogenizer fitted with a teflon pestle. The homogenates were then centrifuged at 48,000 X g for 10 min, and the resultant P2 pellets were washed twice by re-centrifugation in 50 mM Na/K phosphate buffered saline (pH 7.4). The washed pellets were pooled and then resuspended in the same buffer to a final concentration of 50 mg of original tissue weight/ml. […]
Incubations were carried out at 0° C. for 90 minutes. […] Filter-bound radioactivity was quantified through liquid scintillation counting following overnight solubilization of the receptor-radioligand complex in "Scintosol" scintillation cocktail (Isolab, Inc.). […]

In the case of `Fc1ccccc1C1=NCC(=S)N(CC(F)(F)F)c2ccc(Cl)cc21` [quazepam, 7-chloro-1-(2,2,2-trifluorethyl)-5-(2-fluorophenyl)-1,3-dihydro-2H-1,4 benzodiazpeine-2-thione], the “relative proportion of ^3 H-flunitrazepam binding sites, first-named subpopulation” value came out at 55% and the “relative proportion of ^3 H-flunitrazepam binding sites, second-named subpopulation” value is on record as 45%.
